According to publication PMC11209756:

Biological target: ^HCCCT1^CBP368 holocomplex (human) (UniProt P17987)
Experiment: native gel or EMSA

^35S-HIS-ACTB (denatured β-actin) (from UniProt P60709 1-375) (natural protein)
percent of binding relative to TRiC: 40%
